Where “and” joins values, the source holds several entries; their conditions need not be identical. Identical values can stand only once.
Assays:
rat = assay: Randall Selitto test in rats (inflammatory pain, Carrageenin-induced oedema); type: in vivo; conditions: applied alone
[1] = test system: male albino rats (Sprague Dawley); conditions: single administration, i.v., amounts as hemicitrate salt

## CN(C)[C@]1(c2ccccc2)CC[C@]2(CC1)OCCc1c3cc(F)ccc3[nH]c12
rat; i.v., 15 min p. appl., hemicitrate salt
  ED50 (95% CI): 3.31 (2.85-3.75) μg/kg
rat; first ingredient i.v., ibuprofen i.p.
  timepoint of peak effect: 15 min p. appl.
[1]
  ED25 (95% CI): 0.0065 mg/kg and 0.0065 (0.0057-0.0072) mg/kg

From patent publication US20160199349A1 (priority 2012, published 2016)
